Source: article PMC11684019, “Unveiling the Antimycobacterial Potential of Novel 4-Alkoxyquinolines: Insights into Selectivity, Mechanism of Action, and In Vivo Exposure” (Journal of Medicinal Chemistry, 2024)

Assay: Aqueous solubility (UHPLC-DAD)
Details: 25 °C, 4 h

4-Iodo-N-(3-((6-methoxy-2-methylquinolin-4-yl)oxy)propyl)aniline [8e]
Solubility pH 1.2 (0.1 M HCl solution): >2,230 μM
Solubility pH 9.1 (0.1 M NH4HCO3 solution): 2.49 μM
Solubility pH 7.4 (PBS): 2.9 μM
